{"source": "paper PMC3711766", "about": "(The Journal of neuroscience : the official journal of the …, 2013)", "molecular_target": "FLAG-MOR (Mus musculus, UniProt P42866)", "type": "binding", "data": [{"smiles": "CCC(=O)C(CC(C)N(C)C)(c1ccccc1)c1ccccc1", "note": "(stereo not shown) [methadone]", "values": [{"measurement": "fraction derm A594 remaining after 3 min", "value": "0.44±0.01"}]}]}
